This note sets out measurements from the supplement of paper PMC8007513.

± gives the standard error. The entries are a selection whose mix differs from that of the whole data set.

The experiment deals with Trichoderma virens ATCC 9645. In words: growth yield (OD600) with compound + IPBC relative to untreated control; higher = less growth inhibition. To be noted: compound concentration: 100 uM, IPBC concentration: 200 ng/ml. The essentials:
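Library compounds (100 μM final), with or without a co-applied biocide (200 ng ml^−1), were added to 100 μl aliquots of Trichoderma virens ATCC 9645 spores at 15,000 spores ml^−1 in potato dextrose broth. Cultures were grown at 30 °C in 96-well plates, and OD600 was measured at 40 h and 72 h. Each growth value is a mean of duplicate screens, expressed relative to the control with neither agent.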

Take `COc1cc(Br)c(C[N+]2(CCOCCC3CCC4CC3C4(C)C)CCOCC2)cc1OC` (configuration not stated) [Pinaverium bromide] + CCCCNC(=O)OCC#CI [3-iodo-2-propynyl butylcarbamate (IPBC)]: the growth yield (40 h) worked out at 3.02 ± 0.16% and the growth yield (72 h) is 2.52%.
